# Screening data as filed in PubChem BioAssay.
# ARNT TACC3 PPI – disruptors of human ARNT/TACC3 interaction. hit rate 0.66% among 390,000. AID 623870. Q9Y6A5. AlphaScreen His-ARNT PAS-B/GST-TACC3 binding, luminescence; TACC3 fragment carries E629A point mutation. inhibition, % at 9.99 µM;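 active means mean inhibition of replicates at least 50% and at least half of replicates each reaching 50%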;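 further: 0% = complete ARNT plus TACC3 wells and 100% = ARNT alone without TACC3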
# CAL PDZ FP-1 – inhibitors of human CAL PDZ peptide binding; inhibition, % at 24.9 µM; hit rate 0.92% among 300,000; purified CAL PDZ, TMR-peptide fluorescence polarization, 1 h; Q9HD26;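 active means mean inhibition of at least 30% with at least half of replicates also reaching 30%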;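 further: 0% = DMSO neutral control and 100% = excess unlabeled competitor peptide PRC23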
# Yeast UUG start – modulators of start codon recognition fidelity in yeast; S. cerevisiae UUG-firefly luciferase reporter, luminescence/redox ratio; AID 602363; 350,000 tested, 0.13% active; activity score, % at 18.7 µM;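 active = replicate mean at a twofold rise or more, about +100% in these data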;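 also: firefly luciferase made from a UUG start codon reports start codon fidelity; reporter light over untreated wells divided by growth signal over untreated wells; some hits fall short of that in this replicate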
# PglD DTNB – inhibitors of Campylobacter jejuni PglD acetyltransferase | inhibition, % at 12.5 µM | purified PglD enzyme, DTNB colorimetric CoA detection | hit rate 0.098% among 360,000; in the data active means inhibition above about 16%, passing the limit was not always enough
# CAL PDZ FP-2 – human CAL PDZ-peptide interaction inhibition; Q9HD26; purified CAL PDZ, TMR-peptide fluorescence polarization, 1 h; inhibition, % at 20 µM; hit rate 0.02% among 330,000;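 active means highest replicate inhibition of at least 40%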;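 further: plate controls were DMSO neutral control wells for no effect and unlabeled competitor peptide control wells for full effect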
#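 material = purified tagged CAL PDZ domain construct (CerCALP) | buffer or medium = sodium phosphate/NaCl buffer pH 7.4 with TCEP, IgG, Thesit | reagent = TMR-labelled reporter peptide T*-PRC34 bound in PDZ groove | incubation = 1 h room-temperature incubation prior to read | measured by = fluorescence polarization (mP) | evaluation = percent inhibition from loss of millipolarization | control set = unlabelled peptide and DMSO controls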
# Vif inh – blocks HIV Vif function | HEK293T cells, Vif self-association by quenched fluorescence, imaging, 24 h | inhibition, % at 7.49 µM | hit rate 0.35% among 340,000 | AID 602346; in the data active means inhibition above about 50%, passing the limit was not always enough
# * marks the source's active call; other numbers are inactive results; nt = no result; ! = not active in a repeat. Hits are enriched below; roughly 1.6% of the tested compounds scored in any of these assays.
# The first 3 records (preview)
Vif inh | ARNT TACC3 PPI | Yeast UUG start | PglD DTNB | CAL PDZ FP-2 | CAL PDZ FP-1 | Structure
-1.2 | active! | 3.3 | -7.5 | -0.7 | 0.2 | Cc1ccc(S(=O)(=O)N(C)C[C@@H]2Oc3ccc(NC(=O)Cn4cnnn4)cc3C(=O)N([C@@H](C)CO)C[C@H]2C)cc1
nt | 1.7 | 85.5 | 17.6* | nt | nt | C[C@H](CO)N1C[C@H](C)[C@@H](CN(C)C(=O)Nc2ccc(C(F)(F)F)cc2)Oc2ccc(NC(=O)Cn3cnnn3)cc2CC1=O
nt | -3.0 | -3.2 | 1.7 | nt | nt | C[C@H]1CN([C@@H](C)CO)C(=O)c2cc(NC(=O)Cn3cnnn3)ccc2O[C@H]1CN(C)S(=O)(=O)c1ccc(F)cc1

# Results, previewed entries included:
Vif inh | ARNT TACC3 PPI | Yeast UUG start | PglD DTNB | CAL PDZ FP-2 | CAL PDZ FP-1 | Structure
-1.2 | active! | 3.3 | -7.5 | -0.7 | 0.2 | Cc1ccc(S(=O)(=O)N(C)C[C@@H]2Oc3ccc(NC(=O)Cn4cnnn4)cc3C(=O)N([C@@H](C)CO)C[C@H]2C)cc1
nt | 1.7 | 85.5 | 17.6* | nt | nt | C[C@H](CO)N1C[C@H](C)[C@@H](CN(C)C(=O)Nc2ccc(C(F)(F)F)cc2)Oc2ccc(NC(=O)Cn3cnnn3)cc2CC1=O
nt | -3.0 | -3.2 | 1.7 | nt | nt | C[C@H]1CN([C@@H](C)CO)C(=O)c2cc(NC(=O)Cn3cnnn3)ccc2O[C@H]1CN(C)S(=O)(=O)c1ccc(F)cc1
nt | 6.4 | 9.3 | 7.8 | nt | nt | C[C@@H]1CN([C@H](C)CO)C(=O)Cc2cc(NC(=O)Cn3cnnn3)ccc2O[C@H]1CN(C)C(=O)Nc1ccc(C(F)(F)F)cc1
nt | 5.4 | -8.6 | -1.3 | nt | nt | COc1ccc(NC(=O)N(C)C[C@H]2Oc3ccc(NC(=O)Nc4ccc(C(F)(F)F)cc4)cc3CC(=O)N([C@H](C)CO)C[C@@H]2C)cc1
52.2* | -16.1 | -2.1 | 11.7 | nt | -1.7 | COc1ccc(OCCNS(=O)(=O)c2ccccc2)cc1
6.6 | -8.4 | -2.8 | -3.5 | 0.0 | -5.8 | COc1ccc(S(=O)(=O)NCCOc2ccc(Cl)cc2)cc1
69.2* | 4.3 | -10.2 | 5.9 | -1.2 | -4.9 | C=C(C)n1c(=O)n(Cc2ccc(C)cc2)c2ccccc21

# Quoted at random: 2 records from the list.
Vif inh | ARNT TACC3 PPI | Yeast UUG start | PglD DTNB | CAL PDZ FP-2 | CAL PDZ FP-1 | Structure
nt | 1.7 | 85.5 | 17.6* | nt | nt | C[C@H](CO)N1C[C@H](C)[C@@H](CN(C)C(=O)Nc2ccc(C(F)(F)F)cc2)Oc2ccc(NC(=O)Cn3cnnn3)cc2CC1=O
52.2* | -16.1 | -2.1 | 11.7 | nt | -1.7 | COc1ccc(OCCNS(=O)(=O)c2ccccc2)cc1

# Further structures.
Vif inh | ARNT TACC3 PPI | Yeast UUG start | PglD DTNB | CAL PDZ FP-2 | CAL PDZ FP-1 | Structure
nt | nt | -14.5 | -3.8 | nt | nt | O=C(Nc1ccc(F)cc1)N[C@@H]1C=C[C@@H](CC(=O)N2CCCCC2)O[C@@H]1CO
-13.7 | 70.9* | -40.5 | 3.8 | 1.8 | -3.4 | O=C(NNC(=O)c1ccccn1)c1ccc(OC(F)F)cc1
nt | -10.2 | 3.6 | -0.9 | nt | nt | COc1ccc(S(=O)(=O)Nc2ccc3c(c2)CC(=O)N([C@H](C)CO)C[C@@H](C)[C@@H](CN(C)S(=O)(=O)c2ccc(C)cc2)O3)cc1
nt | -3.5 | -13.5 | 1.7 | nt | nt | C[C@@H]1CN([C@@H](C)CO)S(=O)(=O)c2ccc(-c3cncnc3)cc2O[C@H]1CN(C)CC1CC1
nt | 5.1 | nt | nt | 1.4 | 33.2* | CC(C(=O)NC(C)(C)C)N(C(=O)CS(=O)CC(=O)Nc1ccc(F)cc1)c1ccccc1F (stereo not drawn)
-7.8 | nt | 8.1 | -0.7 | -2.2 | -5.2 | Cc1ccc(NC(=O)CS(=O)CC(=O)N(c2ccccc2F)C(C)C(=O)NC2CCCC2)cc1 (stereo not drawn)
nt | -0.1 | -0.3 | 0.8 | nt | nt | Cc1noc(C)c1S(=O)(=O)Nc1cccc2c1O[C@@H](CN(C)C(=O)NC(C)C)[C@@H](C)CN([C@@H](C)CO)C2=O
1.5 | 2.4 | -8.8 | -0.2 | -1.0 | 49.6* | Nc1c2c(nc3ccccc13)CSCC2

# Further records follow.
Vif inh | ARNT TACC3 PPI | Yeast UUG start | PglD DTNB | CAL PDZ FP-2 | CAL PDZ FP-1 | Structure
nt | -2.0 | -8.0 | 8.9 | nt | nt | O=C1O[C@@H](c2ccccc2)[C@@H](c2ccccc2)N2[C@@H](c3ccc(OCCO)cc3)[C@]3(C(=O)Nc4ccc(C#CC5=CCCCC5)cc43)[C@@H](C(=O)N3CCCCCCC3)[C@H]12
15.5 | -2.7 | 5.3 | -6.2 | 0.1 | 43.8* | O=C(COC(=O)c1ccc(Cl)c(S(=O)(=O)NCc2ccccc2)c1)NCC1CCCO1 (stereo not drawn)
nt | -23.4 | -16.6 | -1.1 | nt | nt | C[C@H]1CN([C@@H](C)CO)C(=O)Cc2cc(NC(=O)C3CC3)ccc2O[C@@H]1CN(C)Cc1ccccc1
-6.2 | -3.6 | nt | nt | -3.0 | 0.0 | O=S(=O)(NCCC(c1ccc(F)cc1)c1ccco1)c1ccccc1 (stereo not drawn)
1.3 | -6.0 | nt | nt | 0.2 | 55.6* | Fc1ccc(C(CCNCc2cccs2)c2ccco2)cc1 (stereo not drawn)
0.9 | 45.3* | -51.0 | 0.2 | 0.1 | -1.2 | COc1ccc(/C=N/Nc2nc(C(=O)O)cs2)cc1
nt | -1.5 | -7.5 | 0.0 | nt | nt | C[C@@H]1CN([C@H](C)CO)C(=O)c2cc(NS(=O)(=O)c3ccc(Cl)cc3)ccc2O[C@H]1CN(C)S(=O)(=O)c1cccs1
-8.1 | -1.1 | -15.5 | -1.4 | -1.5 | -3.3 | CCCn1c(C2CC(=O)N(c3ccc(C)cc3)C2)nc2ccccc21 (stereo not drawn)

# Remaining list, next part.
Vif inh | ARNT TACC3 PPI | Yeast UUG start | PglD DTNB | CAL PDZ FP-2 | CAL PDZ FP-1 | Structure
0.3 | -1.4 | -11.5 | 3.2 | -2.0 | 30.5* | Cc1ccc(N2CC(c3nc4ccccc4n3C)CC2=O)cc1 (stereo not drawn)
-4.7 | 7.5 | nt | nt | -0.9 | 44.1* | O=S(=O)(NCc1cc(-c2ccc(Cl)cc2)no1)c1ccc(Cl)cc1
7.4 | 64.4* | -16.4 | -1.5 | -0.7 | 2.1 | Nc1nc(NC(=O)C(Cl)(Cl)Cl)nn1-c1ccccc1
-9.7 | -12.5 | -52.8 | 5.9 | -1.2 | -2.0 | CCC(=O)Nc1nc(N)n(-c2ccccc2)n1
2.2 | 54.6* | -30.5 | 0.3 | -2.2 | -16.2 | CC(CCC(C)C(C)(C)C)[C@@H]1CC[C@H]2C3C[C@H](OS(O)(=S)=S)[C@H]4C[C@H](OS(O)(=S)=S)[C@@H](OS(O)(=S)=S)C[C@]4(C)[C@H]3CC[C@]12C (stereo partly drawn) (tested in a mixture with another compound)
-1.1 | nt | 11.5 | 2.5 | -3.0 | 48.8* | CN(C)CCCn1c2c(c(SCC(=O)Nc3cccc4ccccc34)nc1=O)CCCC2
nt | -31.3 | nt | -8.8 | nt | nt | O=C(NCC(F)(F)F)[C@H]1[C@H](CO)[C@H]2Cn3c(cccc3=O)[C@H]2N1C(=O)c1ccccc1F
-10.3 | -6.3 | -19.3 | 2.3 | -2.6 | 35.6* | O=c1nc2ccccc2c(NS(=O)(=O)c2ccccc2)n1-c1ccccc1

# The list continues.
Vif inh | ARNT TACC3 PPI | Yeast UUG start | PglD DTNB | CAL PDZ FP-2 | CAL PDZ FP-1 | Structure
nt | -2.4 | -9.7 | 1.0 | nt | nt | C[C@H]1CN([C@@H](C)CO)C(=O)c2cccc(NS(=O)(=O)c3ccc(Cl)cc3)c2O[C@@H]1CN(C)C(=O)Nc1ccc(C(F)(F)F)cc1
nt | 2.6 | 19.7 | -1.1 | nt | nt | O=C(C[C@@H]1CC[C@H](NC(=O)Nc2cccc(F)c2)[C@@H](CO)O1)NCC1CC1
26.9 | 1.3 | -7.6 | -3.7 | -0.3 | 37.6* | CC(C)=C(NC(=O)c1ccccc1)C(=O)NCCc1nc2ccccc2[nH]1
nt | nt | 0.9 | nt | nt | nt | C[C@H]1CN([C@@H](C)CO)S(=O)(=O)c2ccc(-c3cncnc3)cc2O[C@@H]1CN(C)C(=O)C1CC1
3.2 | -0.6 | -36.3 | -8.1 | -0.1 | 53.4* | O=C(COc1ccc2c(c1)OCO2)Nc1nccs1
nt | 46.6* | 6.3 | 1.8 | nt | nt | O=C(CCN1CCCCC1)N[C@@H]1CC[C@@H](CCNC(=O)c2cc(Cl)cc(Cl)c2)O[C@@H]1CO
nt | -7.4 | -0.3 | 1.7 | nt | nt | C[C@@H]1CN([C@@H](C)CO)C(=O)c2cc(C#CCN(C)C)cnc2O[C@H]1CN(C)Cc1cccc(C(=O)O)c1
6.6 | -4.2 | 4.3 | -7.1 | -0.3 | 43.9* | Cc1ccc(C(=O)NCCc2ccc(S(=O)(=O)N3CCCC3)cc2)cc1
0.6 | nt | nt | nt | 1.1 | -2.7 | CC1CCN(C(=O)c2ccc(S(=O)(=O)N3CCCCCC3)cc2)CC1
-6.7 | 23.0 | -4.9 | 0.9 | -3.3 | 5.6 | O=C(c1cccc(S(=O)(=O)N2CCCCCC2)c1)N1CCN(c2ccccc2F)CC1
